Source: PMC12136037, “Type II kinase inhibitors that target Parkinson’s disease–associated LRRK2” (Science Advances, 2025)

By UniProt entry, the sequences of proteins in these tests, tags left out.
UniProt O94804, whole entry: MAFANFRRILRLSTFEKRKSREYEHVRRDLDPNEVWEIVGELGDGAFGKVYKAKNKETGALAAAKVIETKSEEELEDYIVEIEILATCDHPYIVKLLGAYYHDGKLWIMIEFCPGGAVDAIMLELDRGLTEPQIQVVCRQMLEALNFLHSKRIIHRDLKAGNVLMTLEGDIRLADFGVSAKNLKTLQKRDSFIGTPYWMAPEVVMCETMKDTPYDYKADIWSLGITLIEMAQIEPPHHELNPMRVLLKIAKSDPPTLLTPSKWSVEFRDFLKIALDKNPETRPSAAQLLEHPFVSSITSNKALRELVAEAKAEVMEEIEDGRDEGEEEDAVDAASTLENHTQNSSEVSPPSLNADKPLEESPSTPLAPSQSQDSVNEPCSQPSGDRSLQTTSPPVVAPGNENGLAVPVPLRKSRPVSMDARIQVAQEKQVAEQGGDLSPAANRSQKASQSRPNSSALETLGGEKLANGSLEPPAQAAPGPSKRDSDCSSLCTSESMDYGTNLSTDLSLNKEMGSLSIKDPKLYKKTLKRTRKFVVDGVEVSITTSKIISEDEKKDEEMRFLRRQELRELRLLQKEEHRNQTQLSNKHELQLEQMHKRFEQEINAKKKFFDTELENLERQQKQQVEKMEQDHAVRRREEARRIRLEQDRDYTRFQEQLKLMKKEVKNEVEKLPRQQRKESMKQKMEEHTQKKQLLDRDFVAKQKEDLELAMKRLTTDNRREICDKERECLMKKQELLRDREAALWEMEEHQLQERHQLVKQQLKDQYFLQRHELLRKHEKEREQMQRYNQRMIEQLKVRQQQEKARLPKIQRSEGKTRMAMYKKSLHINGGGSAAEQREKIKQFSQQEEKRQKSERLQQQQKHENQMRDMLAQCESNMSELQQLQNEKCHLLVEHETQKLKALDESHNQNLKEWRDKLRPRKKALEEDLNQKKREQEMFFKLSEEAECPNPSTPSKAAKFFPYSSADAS
UniProt P19784, whole entry: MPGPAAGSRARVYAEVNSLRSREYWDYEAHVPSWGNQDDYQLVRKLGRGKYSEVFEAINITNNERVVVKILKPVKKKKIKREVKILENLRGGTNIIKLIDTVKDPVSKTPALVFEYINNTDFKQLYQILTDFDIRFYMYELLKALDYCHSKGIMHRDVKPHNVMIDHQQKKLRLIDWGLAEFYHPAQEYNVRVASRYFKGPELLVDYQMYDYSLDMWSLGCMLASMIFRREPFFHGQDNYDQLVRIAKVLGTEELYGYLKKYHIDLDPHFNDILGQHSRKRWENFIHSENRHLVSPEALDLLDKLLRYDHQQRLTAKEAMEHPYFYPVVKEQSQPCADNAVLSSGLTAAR
UniProt Q13554, whole entry: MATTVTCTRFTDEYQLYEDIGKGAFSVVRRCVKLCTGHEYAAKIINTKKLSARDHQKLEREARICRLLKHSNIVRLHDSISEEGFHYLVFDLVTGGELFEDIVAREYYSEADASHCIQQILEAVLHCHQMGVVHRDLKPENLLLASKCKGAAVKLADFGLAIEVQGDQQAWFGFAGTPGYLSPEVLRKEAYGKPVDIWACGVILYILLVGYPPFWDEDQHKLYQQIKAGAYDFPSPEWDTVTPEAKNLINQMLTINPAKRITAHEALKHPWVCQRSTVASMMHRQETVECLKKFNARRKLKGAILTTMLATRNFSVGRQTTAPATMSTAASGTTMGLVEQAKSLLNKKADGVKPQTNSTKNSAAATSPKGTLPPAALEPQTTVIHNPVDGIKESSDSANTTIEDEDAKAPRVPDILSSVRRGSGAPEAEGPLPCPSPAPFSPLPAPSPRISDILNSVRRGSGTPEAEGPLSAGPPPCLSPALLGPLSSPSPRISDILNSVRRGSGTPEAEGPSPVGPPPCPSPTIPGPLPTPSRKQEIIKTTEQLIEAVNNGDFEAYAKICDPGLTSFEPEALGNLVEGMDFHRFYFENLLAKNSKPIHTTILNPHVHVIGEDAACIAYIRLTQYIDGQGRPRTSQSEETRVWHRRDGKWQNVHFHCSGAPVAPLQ
UniProt Q9UEE5, whole entry: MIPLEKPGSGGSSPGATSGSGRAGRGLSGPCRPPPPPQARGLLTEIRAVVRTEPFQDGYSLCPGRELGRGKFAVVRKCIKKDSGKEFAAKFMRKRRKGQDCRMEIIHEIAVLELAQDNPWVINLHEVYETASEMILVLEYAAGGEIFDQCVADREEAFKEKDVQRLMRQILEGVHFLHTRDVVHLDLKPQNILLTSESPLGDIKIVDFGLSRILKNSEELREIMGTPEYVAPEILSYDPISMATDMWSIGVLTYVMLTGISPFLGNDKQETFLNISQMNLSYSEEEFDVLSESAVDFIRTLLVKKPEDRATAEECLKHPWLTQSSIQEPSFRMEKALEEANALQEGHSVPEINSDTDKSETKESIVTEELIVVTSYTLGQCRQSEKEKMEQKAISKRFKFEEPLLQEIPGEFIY
UniProt Q09013, whole entry: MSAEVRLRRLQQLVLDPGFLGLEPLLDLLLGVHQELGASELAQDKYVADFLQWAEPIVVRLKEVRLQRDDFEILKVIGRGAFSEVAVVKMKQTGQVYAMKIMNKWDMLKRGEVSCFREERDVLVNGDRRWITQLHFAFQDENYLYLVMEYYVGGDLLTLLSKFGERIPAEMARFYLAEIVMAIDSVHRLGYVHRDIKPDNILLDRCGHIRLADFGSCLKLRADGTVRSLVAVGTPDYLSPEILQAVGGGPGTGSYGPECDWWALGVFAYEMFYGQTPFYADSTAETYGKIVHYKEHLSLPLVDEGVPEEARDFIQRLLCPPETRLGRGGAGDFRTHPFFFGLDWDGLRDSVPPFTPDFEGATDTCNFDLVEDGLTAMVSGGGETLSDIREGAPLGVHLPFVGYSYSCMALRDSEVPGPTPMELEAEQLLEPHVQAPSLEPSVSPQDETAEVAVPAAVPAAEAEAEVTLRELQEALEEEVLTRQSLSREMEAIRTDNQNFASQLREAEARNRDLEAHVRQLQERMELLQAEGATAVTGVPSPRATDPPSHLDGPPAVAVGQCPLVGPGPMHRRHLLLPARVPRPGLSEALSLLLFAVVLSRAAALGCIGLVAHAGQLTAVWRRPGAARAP
UniProt P28482, whole entry: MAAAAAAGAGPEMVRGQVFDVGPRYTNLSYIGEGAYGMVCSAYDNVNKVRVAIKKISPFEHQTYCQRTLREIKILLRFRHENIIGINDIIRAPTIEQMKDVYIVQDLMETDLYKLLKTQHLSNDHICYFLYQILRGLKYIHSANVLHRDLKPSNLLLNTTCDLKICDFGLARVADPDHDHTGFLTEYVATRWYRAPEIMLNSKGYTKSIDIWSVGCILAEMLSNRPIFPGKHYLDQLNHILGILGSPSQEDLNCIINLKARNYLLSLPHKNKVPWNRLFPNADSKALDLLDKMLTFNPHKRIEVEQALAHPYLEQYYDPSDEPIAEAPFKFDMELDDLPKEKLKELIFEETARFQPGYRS
UniProt Q9H2X6, whole entry: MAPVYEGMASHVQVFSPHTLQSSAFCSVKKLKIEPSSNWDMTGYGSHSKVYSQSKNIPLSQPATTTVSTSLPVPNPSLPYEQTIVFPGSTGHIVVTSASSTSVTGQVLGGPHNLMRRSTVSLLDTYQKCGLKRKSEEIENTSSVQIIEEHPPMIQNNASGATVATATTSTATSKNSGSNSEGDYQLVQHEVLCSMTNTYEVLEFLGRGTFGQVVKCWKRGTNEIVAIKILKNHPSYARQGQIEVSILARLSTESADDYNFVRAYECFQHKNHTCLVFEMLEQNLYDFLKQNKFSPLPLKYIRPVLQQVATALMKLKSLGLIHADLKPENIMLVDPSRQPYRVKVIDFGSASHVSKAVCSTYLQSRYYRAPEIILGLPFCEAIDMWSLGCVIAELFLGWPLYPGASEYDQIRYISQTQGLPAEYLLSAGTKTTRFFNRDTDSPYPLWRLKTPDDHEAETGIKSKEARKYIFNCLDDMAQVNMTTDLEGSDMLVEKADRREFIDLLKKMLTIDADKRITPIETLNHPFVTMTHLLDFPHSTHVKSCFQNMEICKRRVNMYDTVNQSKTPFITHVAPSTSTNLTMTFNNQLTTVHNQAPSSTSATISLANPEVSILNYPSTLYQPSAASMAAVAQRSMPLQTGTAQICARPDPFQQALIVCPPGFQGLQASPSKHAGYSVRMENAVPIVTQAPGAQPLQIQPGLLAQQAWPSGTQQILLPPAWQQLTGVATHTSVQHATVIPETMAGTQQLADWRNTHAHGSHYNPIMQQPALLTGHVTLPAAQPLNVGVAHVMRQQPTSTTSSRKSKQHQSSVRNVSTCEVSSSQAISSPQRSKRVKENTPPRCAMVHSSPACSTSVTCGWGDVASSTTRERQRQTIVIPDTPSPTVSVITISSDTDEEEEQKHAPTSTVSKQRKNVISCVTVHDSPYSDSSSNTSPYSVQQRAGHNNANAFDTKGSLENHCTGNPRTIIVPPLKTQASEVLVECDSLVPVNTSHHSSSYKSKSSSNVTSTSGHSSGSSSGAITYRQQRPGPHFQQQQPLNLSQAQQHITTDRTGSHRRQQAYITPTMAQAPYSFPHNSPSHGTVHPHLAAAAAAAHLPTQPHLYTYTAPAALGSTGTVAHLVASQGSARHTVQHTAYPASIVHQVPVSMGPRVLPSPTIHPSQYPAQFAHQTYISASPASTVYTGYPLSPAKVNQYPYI
UniProt Q9Y243, whole entry: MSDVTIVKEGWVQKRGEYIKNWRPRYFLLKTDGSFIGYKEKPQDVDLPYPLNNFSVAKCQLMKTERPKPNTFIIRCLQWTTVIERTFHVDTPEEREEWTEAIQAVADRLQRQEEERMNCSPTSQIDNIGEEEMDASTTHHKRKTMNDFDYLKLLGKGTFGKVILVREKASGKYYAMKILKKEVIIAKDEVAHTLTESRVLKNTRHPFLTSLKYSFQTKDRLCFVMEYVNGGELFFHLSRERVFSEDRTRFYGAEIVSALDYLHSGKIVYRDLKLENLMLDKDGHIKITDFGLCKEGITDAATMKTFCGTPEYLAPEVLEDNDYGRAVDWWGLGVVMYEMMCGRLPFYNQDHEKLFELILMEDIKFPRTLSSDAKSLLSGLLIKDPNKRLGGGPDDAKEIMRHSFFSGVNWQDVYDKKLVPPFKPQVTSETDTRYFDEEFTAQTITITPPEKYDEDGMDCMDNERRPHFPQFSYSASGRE
UniProt P52564, whole entry: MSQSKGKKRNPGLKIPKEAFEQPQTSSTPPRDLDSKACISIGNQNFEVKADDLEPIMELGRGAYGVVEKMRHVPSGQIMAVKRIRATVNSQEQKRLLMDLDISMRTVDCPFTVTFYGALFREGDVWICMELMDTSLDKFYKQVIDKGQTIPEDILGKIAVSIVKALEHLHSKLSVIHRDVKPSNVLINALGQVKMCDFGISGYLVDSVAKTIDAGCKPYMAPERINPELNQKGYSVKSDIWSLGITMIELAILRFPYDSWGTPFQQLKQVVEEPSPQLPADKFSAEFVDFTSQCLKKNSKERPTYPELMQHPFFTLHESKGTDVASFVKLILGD
UniProt O00444, whole entry: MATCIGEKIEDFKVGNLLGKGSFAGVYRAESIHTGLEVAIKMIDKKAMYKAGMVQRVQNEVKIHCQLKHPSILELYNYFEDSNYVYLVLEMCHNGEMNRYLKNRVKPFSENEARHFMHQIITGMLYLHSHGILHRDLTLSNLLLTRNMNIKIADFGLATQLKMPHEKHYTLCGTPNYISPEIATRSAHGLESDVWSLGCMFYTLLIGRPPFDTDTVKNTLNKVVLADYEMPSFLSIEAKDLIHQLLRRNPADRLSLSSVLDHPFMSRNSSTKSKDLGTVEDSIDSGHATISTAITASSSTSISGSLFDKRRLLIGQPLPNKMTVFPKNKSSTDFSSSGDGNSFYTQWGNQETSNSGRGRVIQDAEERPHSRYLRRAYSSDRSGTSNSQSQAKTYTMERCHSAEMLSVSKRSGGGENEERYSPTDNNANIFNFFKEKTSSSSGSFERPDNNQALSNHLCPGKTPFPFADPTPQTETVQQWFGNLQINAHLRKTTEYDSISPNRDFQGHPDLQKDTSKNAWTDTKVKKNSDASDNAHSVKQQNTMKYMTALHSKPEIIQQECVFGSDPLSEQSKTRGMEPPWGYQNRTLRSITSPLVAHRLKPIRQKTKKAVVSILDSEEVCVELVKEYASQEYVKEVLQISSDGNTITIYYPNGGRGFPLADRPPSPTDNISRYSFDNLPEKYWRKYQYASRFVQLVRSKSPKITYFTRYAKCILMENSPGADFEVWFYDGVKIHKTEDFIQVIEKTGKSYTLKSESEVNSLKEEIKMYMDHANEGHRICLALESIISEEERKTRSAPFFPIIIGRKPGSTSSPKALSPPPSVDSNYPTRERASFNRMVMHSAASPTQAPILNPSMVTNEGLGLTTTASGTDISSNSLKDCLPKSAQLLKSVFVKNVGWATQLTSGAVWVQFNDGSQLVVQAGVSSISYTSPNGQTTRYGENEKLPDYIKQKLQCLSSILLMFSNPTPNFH

Legend:
Experiment in all cases: DSF 100 kinase selectivity screen;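 on dTm: compound tested at 20 µM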
Format in all cases: binding
[1] = target: ~100 representative kinases (Homo sapiens, UniProt P49759); settings: Protein CLK1; average of three replicates
[2] = target: ~100 representative kinases (Homo sapiens, UniProt Q6PHR2); settings: Protein ULK3; DSF; average of three replicates
[3] = target: ~100 representative kinases (Homo sapiens, UniProt Q00532); settings: Protein CDKL1; average of three replicates
[4] = target: ~100 representative kinases (Homo sapiens, UniProt O94804); settings: Protein STK10; DSF; average of three replicates
[5] = target: ~100 representative kinases (Homo sapiens, UniProt P19784); settings: Protein CK2A2; average of three replicates
[6] = target: ~100 representative kinases (Homo sapiens, UniProt Q13554); settings: Protein CAMK2B; average of three replicates
[7] = target: ~100 representative kinases (Homo sapiens, UniProt Q9Y6E0); settings: protein MST3; average of three replicates
[8] = target: ~100 representative kinases (Homo sapiens, UniProt Q9UEE5); settings: Protein STK17A; DSF; average of three replicates
[9] = target: ~100 representative kinases (Homo sapiens, UniProt O75582); settings: Protein RPS6KA5; DSF; average of three replicates
[10] = target: ~100 representative kinases (Homo sapiens, UniProt P15735); settings: protein PHKG2; average of three replicates
[11] = target: ~100 representative kinases (Homo sapiens, UniProt Q09013); settings: Protein DMPK1; average of three replicates
[12] = target: ~100 representative kinases (Homo sapiens, UniProt Q9H4A3); settings: Protein WNK1; DSF; average of three replicates
[13] = system: ~100 representative kinases
[14] = target: ~100 representative kinases (Homo sapiens, UniProt Q15375); settings: Protein EPHA7; average of three replicates
[15] = target: ~100 representative kinases (Homo sapiens, UniProt P15056); settings: Protein BRAF; average of three replicates
[16] = target: ~100 representative kinases (Homo sapiens, UniProt P00519); settings: Protein ABL1; average of three replicates
[17] = target: ~100 representative kinases (Homo sapiens, UniProt P68400); settings: Protein CK2A1; average of three replicates
[18] = target: ~100 representative kinases (Homo sapiens, UniProt Q96L34); settings: protein MARK4; average of three replicates
[19] = target: ~100 representative kinases (Homo sapiens, UniProt O96017); settings: Protein CHEK2; average of three replicates
[20] = target: ~100 representative kinases (Homo sapiens, UniProt P28482); settings: protein MAPK1; average of three replicates
[21] = target: ~100 representative kinases (Homo sapiens, UniProt O15164); settings: Protein TIF1; DSF; average of three replicates
[22] = target: ~100 representative kinases (Homo sapiens, UniProt Q9H2X6); settings: protein HIPK2; average of three replicates
[23] = target: ~100 representative kinases (Homo sapiens, UniProt Q9Y243); settings: Protein AKT3; average of three replicates
[24] = target: ~100 representative kinases (Homo sapiens, UniProt Q13043); settings: Protein STK4; DSF; average of three replicates
[25] = target: ~100 representative kinases (Homo sapiens, UniProt Q16566); settings: Protein CAMK4; average of three replicates
[26] = target: ~100 representative kinases (Homo sapiens, UniProt Q96NX5); settings: Protein CAMK1G; average of three replicates
[27] = target: ~100 representative kinases (Homo sapiens, UniProt P54764); settings: Protein EPHA4; average of three replicates
[28] = target: ~100 representative kinases (Homo sapiens, UniProt Q16539); settings: protein MAPK14; average of three replicates
[29] = target: ~100 representative kinases (Homo sapiens, UniProt P45983); settings: protein MAPK8; average of three replicates
[30] = target: ~100 representative kinases (Homo sapiens, UniProt P52564); settings: protein MAP2K6; average of three replicates
[31] = target: ~100 representative kinases (Homo sapiens, UniProt O00444); settings: protein PLK4; average of three replicates
[32] = target: ~100 representative kinases (Homo sapiens, UniProt Q8TD08); settings: protein MAPK15; average of three replicates
[33] = target: ~100 representative kinases (Homo sapiens, UniProt Q96GD4); settings: Protein AURKB; average of three replicates
[34] = target: ~100 representative kinases (Homo sapiens, UniProt O94768); settings: Protein STK17B; DSF; average of three replicates

Question: What does the source list for `Cc1ccc(C(=O)Nc2ccc(CN3CCN(C)CC3)c(C(F)(F)F)c2)cc1C#Cc1ccc2cn[nH]c2c1`?
Answer: dTm [1]: 2.76 K; dTm [2]: 7.16 K; dTm [3]: 2.79 K; dTm [4]: 16.53 K; dTm [5]: -4.57 K; dTm [6]: -2.20 K; dTm [7]: 10.92 K; dTm [8]: -0.32 K; dTm [9]: 1.23 K; dTm [10]: -3.85 K; dTm [11]: -0.97 K; dTm [12]: 1.03 K; S (5 K) / share of screened kinases stabilized ([13]; DSF selectivity panel, thermal shift >5 K): 27%; dTm ([13]; Protein BRD, average of three replicates): -1.79 K; S(5K) ([13]; number of kinases with thermal shift >5 K divided by total number of kinases screened): 0.27; # >5K ([13]; number of proteins of the DSF panel with dTm >5K): 27; S(5K) ([13]; selectivity score: # >5K divided by # of proteins tested in the DSF panel): 0.267; dTm [14]: 4.22 K; dTm [15]: 40.88 K; dTm [16]: 19.53 K; dTm [17]: -0.07 K; dTm [18]: 0.47 K; dTm [19]: 18.89 K; dTm [20]: -1.88 K; dTm [21]: -4.10 K; dTm [22]: -2.23 K; dTm [23]: 0.29 K; dTm [24]: 4.38 K; dTm [25]: -2.04 K; dTm [26]: 0.22 K; dTm [27]: -10.30 K; dTm [28]: 7.02 K; dTm [29]: 2.23 K; dTm [30]: 0.61 K; dTm [31]: 7.72 K; dTm [32]: 16.93 K; dTm [33]: 5.30 K; dTm [34]: 0.46 K
